Values of other authors in patent publication US11872302B2, “Product for dyeing keratinous material, containing aminosilicone, a chromophoric compound and ester oil” (Henkel AG & Co. KGaA, priority 2019, dated 2024).

Conditions: 25° C.

3,4,5,6-tetrachloro-2-(1,4,5,8-tetrabromo-6-hydroxy-3-oxoxanthen-9-yl)benzoic acid [Acid Red 92]
solubility in water: greater than 10 g/L
